Measurements as given in patent US20040209897A1 (Pharmacia Corporation, priority 2002, published 2004).

Protein sequences, listed by entry. Tags and fused reporters are not part of them.
UniProt P49137, whole entry, species assumed: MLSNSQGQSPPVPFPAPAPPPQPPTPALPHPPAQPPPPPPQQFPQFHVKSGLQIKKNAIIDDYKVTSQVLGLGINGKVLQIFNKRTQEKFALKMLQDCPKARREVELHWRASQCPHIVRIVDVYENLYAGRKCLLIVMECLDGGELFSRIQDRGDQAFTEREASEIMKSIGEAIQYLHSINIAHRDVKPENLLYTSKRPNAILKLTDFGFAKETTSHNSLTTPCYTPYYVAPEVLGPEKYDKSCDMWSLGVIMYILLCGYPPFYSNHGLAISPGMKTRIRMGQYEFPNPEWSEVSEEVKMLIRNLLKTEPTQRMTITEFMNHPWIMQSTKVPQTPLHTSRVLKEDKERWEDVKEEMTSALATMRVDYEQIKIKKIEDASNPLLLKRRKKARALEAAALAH

Target: Recombinant MAPKAPK2 (MK-2) (Homo sapiens, UniProt P49137)
Test: Determination of MK-2 IC50 (HSP-peptide phosphorylation, anion exchange resin capture assay)
Assay type: biochemical
Settings: MAPKAP2 Avg. IC50

| Compound | IC50 [nM] |
| --- | --- |
| O=C(O)/C=C\C(=O)Nc1ccc(-c2cc(-c3cc4c([nH]3)CCNC4=O)ccn2)cc1 [Example 127, 2-[2-(1H-indazol-5-yl)pyridin-4-yl]-1,5,6,7-tetrahydro-4H-pyrrolo[3,2-c]pyridin-4-one] | 24.8 |
| O=C1NCCc2[nH]c(-c3ccnc(/C=C/c4cccc(C(=O)N5CCOCC5)c4)c3)cc21 [Example 92, (2E)-3-{4-[4-(4-oxo-4,5,6,7-tetrahydro-1H-pyrrolo[3,2-c]pyridin-2-yl)pyridin-2-yl]phenyl}prop-2-enoic acid trifluoroacetate] | 20.1 |
| O=C1NCCc2[nH]c(-c3ccnc(-c4ccc(CCCNCCCc5ccccc5)nc4)c3)cc21 [Example 228, 2-(6′-{[(1R)-1-phenylethyl]amino}-2,3′-bipyridin-4-yl)-1,5,6,7-tetrahydro-4H-pyrrolo[3,2-c]pyridin-4-one trifluoroacetate] | 39.3 |
| O=C(CBr)Nc1ccc(-c2cc(-c3cc4c([nH]3)CCNC4=O)ccn2)cc1 [Example 3, 4-[4-(4-oxo-4,5,6,7-tetrahydro-1H-pyrrolo[3,2-c]pyridin-2-yl)pyridin-2-yl]benzoic acid trifluoroacetate] | 5.85 |

Second part, the compound after the results:

| IC50 [nM] | Compound |
| --- | --- |
| 359 | N#[N+]c1c(-c2ccnc(-c3cccc(F)c3)c2)[nH]c2c1C(=O)NCC2 [Example 606, 2-{2-[(E)-2-(6-methoxy-2-naphthyl)vinyl]pyridin-4-yl}-1,5,6,7-tetrahydro-4H-pyrrolo[3,2-c]pyridin-4-one trifluoroacetate] |
| 1190 | O=C1NCCc2[nH]c(-c3cc(-c4ccccc4F)ncn3)cc21 [Example 696, 2-(2-{(E)-2-[4-(morpholin-4-ylmethyl)phenyl]vinyl}pyridin-4-yl)-1,5,6,7-tetrahydro-4H-pyrrolo[3,2-c]pyridin-4-one trifluoroacetate] |
| 47.9 | O=C1NCCc2[nH]c(-c3ccnc(-c4cccnc4)c3)cc21 [Example 268, 7-Methyl-2-(2-quinolin-3-ylpyridin-4-yl)-1,5,6,7-tetrahydro-4H-pyrrolo[3,2-c]pyridin-4-one trifluoroacetate] |
| 39.3 | O=C1NCCc2[nH]c(-c3ccnc(/C=C\c4c[nH]nc4-c4ccccc4)c3)cc21 [Example 229, 2-(6′-{[(1S)-1-phenylethyl]amino}-2,3′-bipyridin-4-yl)-1,5,6,7-tetrahydro-4H-pyrrolo[3,2-c]pyridin-4-one trifluoroacetate] |

Counter-ions that a name gives are not always drawn.
